This test deals with human TLR9 (hTLR9) (Homo sapiens (Human), UniProt Q9NR96). The experiment in a line: TLR9 antagonist assay in HEK-Blue-hTLR9 cells (SEAP reporter, ODN 2006 agonist). As to conditions: read-out: hTLR9 antagonism IC50, inhibition of hTLR9 dependent SEAP production, hTLR9 agonist such as ODN 2006, 1 μM, tested form: sulfate. The source says: HEK-Blue™-hTLR9 cells were obtained from InvivoGen Inc. and used to determine test compound antagonism of human TLR9 (hTLR9) driven responses. HEK-Blue™-hTLR9 cells are designed for studying the stimulation of human TLR9 by monitoring the activation of NF-kB. As described by the manufacturer, “HEK-Blue™-hTLR9 cells were obtained by co-transfection of the hTLR9 gene and an optimized secreted embryonic alkaline phosphatase (SEAP) reporter gene into HEK293 cells. The SEAP reporter gene is placed under the control of the IFN-b minimal promoter fused to five NF-kB and AP-1 binding sites. Stimulation with a TLR9 ligand activates NF-kB and AP-1 which induces the production of SEAP. Levels of SEAP can be easily determined with QUANTI-Blue™ a detection medium that turns purple/blue in the presence of alkaline phosphatase”. […]
Invivogen's QUANTI-Blue™ was prepared following the manufacturer's instructions. […] SEAP levels were determined using a spectrophotometer at 620 nm.
The concentration dependent inhibition of hTLR9 dependent SEAP production was expressed as the concentration of compound which produced half the maximal level of SEAP induced by the hTLR agonist alone. Percent activity was calculated for each observation using the formula: % activity=((observed O.D.−background O.D.)/(agonist only O.D.−background O.D.))*100. […]

Chains of the proteins cited; added tags and fusions are not shown. Residues count along the entry.
UniProt Q9NR96, 26-1032 limits assumed: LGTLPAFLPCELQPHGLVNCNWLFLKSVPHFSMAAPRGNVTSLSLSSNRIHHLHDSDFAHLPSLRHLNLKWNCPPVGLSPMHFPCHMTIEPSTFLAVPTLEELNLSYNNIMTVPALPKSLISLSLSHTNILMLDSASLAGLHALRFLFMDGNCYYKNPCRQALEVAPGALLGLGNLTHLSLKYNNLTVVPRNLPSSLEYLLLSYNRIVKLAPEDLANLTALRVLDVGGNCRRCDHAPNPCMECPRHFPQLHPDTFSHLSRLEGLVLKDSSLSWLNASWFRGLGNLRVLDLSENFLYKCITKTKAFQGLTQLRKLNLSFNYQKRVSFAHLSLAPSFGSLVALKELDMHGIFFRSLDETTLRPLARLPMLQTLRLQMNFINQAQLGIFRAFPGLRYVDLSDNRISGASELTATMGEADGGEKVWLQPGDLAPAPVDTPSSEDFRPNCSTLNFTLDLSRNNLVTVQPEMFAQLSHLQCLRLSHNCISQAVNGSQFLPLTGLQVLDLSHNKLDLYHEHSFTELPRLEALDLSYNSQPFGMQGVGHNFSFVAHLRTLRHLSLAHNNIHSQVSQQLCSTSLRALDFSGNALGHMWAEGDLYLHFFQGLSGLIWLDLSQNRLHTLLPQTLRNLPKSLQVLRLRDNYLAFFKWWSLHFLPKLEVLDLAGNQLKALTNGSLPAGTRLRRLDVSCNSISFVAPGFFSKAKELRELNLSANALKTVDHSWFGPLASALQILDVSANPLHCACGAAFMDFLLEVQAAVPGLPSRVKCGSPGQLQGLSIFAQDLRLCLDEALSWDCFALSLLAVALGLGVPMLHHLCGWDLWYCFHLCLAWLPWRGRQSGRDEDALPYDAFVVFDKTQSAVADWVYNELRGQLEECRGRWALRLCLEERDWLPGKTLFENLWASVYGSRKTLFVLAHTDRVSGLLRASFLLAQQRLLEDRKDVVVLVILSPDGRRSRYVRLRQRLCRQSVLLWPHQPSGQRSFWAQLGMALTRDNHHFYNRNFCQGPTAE

For orientation: IC50 means the concentration that gives 50% inhibition. Regarding `CN(C)CCN(C)c1nc(-c2ccccc2)nc2c1ncn2CCN1CCOCC1`, the IC50 came out at 2740 nM.
